The subject of this test is mice after pilocarpine-induced status epilepticus. The conditions noted are these: mouse, in vivo.

The structures appear in SMILES notation. Entries after “also recorded” stand apart in the source; their conditions may differ.

Consider `COc1cc(/C=C/C(=O)NCCn2c(C(F)(F)F)cc3ccccc32)cc(OC)c1OC` [1h, N-(2-(2-(trifluoromethyl)-1H-indol-1-yl)ethyl)-3-(3,4,5-trimethoxyphenyl)acrylamide], for which the “Effect on status epilepticus-induced weight loss” value is “reduced; also recorded: partially prevented” and the “Weight gain from day 1 to day 4 compared to vehicle” value is on record as “gained weight; also recorded: gained more weight”.

These data come from patent US10040783B2 (Emory University, priority 2011, dated 2018).
